Assay results taken from US9549932B2, “2-(morpholin-4-yl)-1,7-naphthyridines” (BAYER PHARMA AKTIENGESELLSCHAFT, priority 2014, dated 2017).

Protein sequences, listed by entry. Tags and fused reporters are not part of them. Chains listed by the source or under a name are the forms on record and can include a tag or linker.
UniProt Q13535, other isoform, or with tags, fused parts or gaps: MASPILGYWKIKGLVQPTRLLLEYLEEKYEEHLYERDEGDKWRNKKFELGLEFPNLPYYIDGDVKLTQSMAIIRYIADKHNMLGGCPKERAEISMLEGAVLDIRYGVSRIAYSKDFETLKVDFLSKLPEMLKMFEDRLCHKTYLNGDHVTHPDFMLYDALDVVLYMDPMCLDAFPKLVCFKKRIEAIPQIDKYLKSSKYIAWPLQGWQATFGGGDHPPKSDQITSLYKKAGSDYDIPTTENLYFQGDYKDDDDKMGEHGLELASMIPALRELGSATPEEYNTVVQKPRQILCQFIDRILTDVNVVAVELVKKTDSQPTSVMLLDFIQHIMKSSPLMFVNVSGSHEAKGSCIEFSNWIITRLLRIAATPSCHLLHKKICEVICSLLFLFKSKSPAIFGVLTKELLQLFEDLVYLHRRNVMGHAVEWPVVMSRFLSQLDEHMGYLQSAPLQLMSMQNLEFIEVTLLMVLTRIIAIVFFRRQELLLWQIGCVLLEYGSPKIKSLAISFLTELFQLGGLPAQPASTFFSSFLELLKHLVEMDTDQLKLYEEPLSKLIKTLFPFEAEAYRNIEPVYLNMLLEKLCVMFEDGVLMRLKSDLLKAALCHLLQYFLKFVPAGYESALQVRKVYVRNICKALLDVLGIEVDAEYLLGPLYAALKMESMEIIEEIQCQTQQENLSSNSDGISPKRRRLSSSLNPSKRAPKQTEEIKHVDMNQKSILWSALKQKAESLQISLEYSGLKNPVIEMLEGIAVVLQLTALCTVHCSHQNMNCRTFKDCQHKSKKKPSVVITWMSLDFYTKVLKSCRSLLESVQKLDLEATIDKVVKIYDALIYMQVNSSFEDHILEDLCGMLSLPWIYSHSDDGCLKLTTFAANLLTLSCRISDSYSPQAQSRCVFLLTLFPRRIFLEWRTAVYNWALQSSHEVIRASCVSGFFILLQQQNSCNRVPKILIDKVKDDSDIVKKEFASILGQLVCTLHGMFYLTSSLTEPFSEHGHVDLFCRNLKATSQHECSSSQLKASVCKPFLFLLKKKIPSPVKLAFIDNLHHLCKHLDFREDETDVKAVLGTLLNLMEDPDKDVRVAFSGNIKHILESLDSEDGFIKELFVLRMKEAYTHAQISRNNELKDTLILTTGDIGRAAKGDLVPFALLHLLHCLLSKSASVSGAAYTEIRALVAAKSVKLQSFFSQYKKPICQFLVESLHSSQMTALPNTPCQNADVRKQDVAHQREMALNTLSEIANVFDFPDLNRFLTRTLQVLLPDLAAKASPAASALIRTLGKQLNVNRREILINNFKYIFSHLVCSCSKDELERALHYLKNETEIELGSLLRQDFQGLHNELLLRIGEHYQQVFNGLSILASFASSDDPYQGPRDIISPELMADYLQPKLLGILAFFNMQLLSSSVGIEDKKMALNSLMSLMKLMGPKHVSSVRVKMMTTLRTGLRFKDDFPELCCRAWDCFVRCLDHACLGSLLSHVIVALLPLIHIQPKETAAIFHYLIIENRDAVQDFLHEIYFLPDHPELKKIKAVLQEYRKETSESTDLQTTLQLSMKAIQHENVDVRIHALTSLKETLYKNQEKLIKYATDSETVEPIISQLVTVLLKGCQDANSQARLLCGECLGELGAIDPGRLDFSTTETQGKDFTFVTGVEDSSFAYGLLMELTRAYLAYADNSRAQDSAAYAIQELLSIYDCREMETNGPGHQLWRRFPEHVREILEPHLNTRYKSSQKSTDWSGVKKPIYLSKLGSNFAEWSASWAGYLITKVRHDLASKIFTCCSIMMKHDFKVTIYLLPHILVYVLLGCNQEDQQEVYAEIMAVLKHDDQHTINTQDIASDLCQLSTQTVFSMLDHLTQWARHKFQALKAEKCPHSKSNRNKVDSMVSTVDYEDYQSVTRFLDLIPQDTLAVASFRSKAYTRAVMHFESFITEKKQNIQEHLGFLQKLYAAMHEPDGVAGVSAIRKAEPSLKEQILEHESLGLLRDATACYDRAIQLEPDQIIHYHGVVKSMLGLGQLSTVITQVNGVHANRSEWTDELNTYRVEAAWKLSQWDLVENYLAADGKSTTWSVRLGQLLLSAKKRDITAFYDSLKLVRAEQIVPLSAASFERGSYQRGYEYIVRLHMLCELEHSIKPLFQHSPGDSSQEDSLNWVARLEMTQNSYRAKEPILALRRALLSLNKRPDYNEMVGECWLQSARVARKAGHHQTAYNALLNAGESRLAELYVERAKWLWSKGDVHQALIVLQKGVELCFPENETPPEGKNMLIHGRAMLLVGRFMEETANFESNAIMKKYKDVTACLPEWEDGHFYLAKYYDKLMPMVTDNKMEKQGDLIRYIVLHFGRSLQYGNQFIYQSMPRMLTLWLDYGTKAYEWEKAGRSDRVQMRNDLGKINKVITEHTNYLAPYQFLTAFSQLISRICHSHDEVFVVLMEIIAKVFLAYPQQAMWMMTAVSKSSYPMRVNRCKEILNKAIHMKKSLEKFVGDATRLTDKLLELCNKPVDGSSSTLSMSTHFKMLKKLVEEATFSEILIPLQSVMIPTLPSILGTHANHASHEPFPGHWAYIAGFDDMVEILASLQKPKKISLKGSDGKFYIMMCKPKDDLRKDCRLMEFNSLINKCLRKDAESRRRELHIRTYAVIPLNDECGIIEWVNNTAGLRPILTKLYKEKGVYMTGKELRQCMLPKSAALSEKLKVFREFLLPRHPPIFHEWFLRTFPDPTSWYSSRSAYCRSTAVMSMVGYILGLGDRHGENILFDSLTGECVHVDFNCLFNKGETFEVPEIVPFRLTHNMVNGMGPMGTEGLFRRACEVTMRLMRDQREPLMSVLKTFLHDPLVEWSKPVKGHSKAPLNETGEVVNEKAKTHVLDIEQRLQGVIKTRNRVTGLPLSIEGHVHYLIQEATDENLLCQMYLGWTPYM

Target: full-length human ATR protein (Homo sapiens (Human), UniProt Q13535)
Assay: Binding assay ATR (TR-FRET tracer displacement)
Details: tracer A
Excerpt: To determine of binding activity of the test compounds, full-length human ATR protein was expressed and purified together with ATRIP as described above. Furthermore, a fluorescently labelled compound (either tracer A or B as described above) was used as a tracer molecule. Detection of the binding event of the tracer was achieved by time-resolved fluorescence energy transfer (TR-FRET). We used an anti-GST-Terbium antibody (CisBio) that binds to the GST-tag at the N-terminus of ATR-kinase. […] Displacement of the fluorescent tracer by a test compound leads to a reduction of the TR-FRET-signal.
For the assay 50 nl of a 100-fold concentrated solution of the test compound in DMSO was pipetted into a black low volume 384well microtiter plate (MTP, Greiner Bio-One, Frickenhausen, Germany). […] The ATR-working solution was incubated for 30 min at 22° C. prior to dispensing to pre-form the complex of antiGST-Tb+GST-ATR+ATRIP. Then, 3 μl of the ATR-working solution were added to the test compound and the mixture was incubated for 10 min at 22° C. to allow pre-binding of the test compounds to ATR/ATRIP. Then, 2 μl of a 100 nM solution of either tracer A or B in assay buffer were added to the ATR-working solution. The resulting mixture was incubated for 30 min at 22° C. […] The dilution series were prepared separately before the assay on the level of the 100 fold concentrated solutions in DMSO by serial 1:3.4 dilutions in duplicate values for each concentration. IC50 values were calculated by a 4 parameter fit using standard software (GraphPad prism or equivalent).

SMILES	IC50 [nM]
Cc1cc(-c2cc(N3CCOC[C@H]3C)nc3c(-c4ccn[nH]4)nccc23)cnc1F [Example 92, 4-(6-fluoro-5-methylpyridin-3-yl)-2-[(3R)-3-methylmorpholin-4-yl]-8-(1H-pyrazol-5-yl)-1,7-naphthyridine]	13.7
C[C@@H]1COCCN1c1cc(-c2ccc(F)nc2)c2ccnc(-c3ccn[nH]3)c2n1 [Example 94, 4-(6-fluoropyridin-3-yl)-2-[(3R)-3-methylmorpholin-4-yl]-8-(1H-pyrazol-5-yl)-1,7-naphthyridine]	13.7
CN(C)c1ccc(-c2cc(N3CCOCC3)nc3c(-c4ccn[nH]4)nccc23)cn1 [Example 187, N,N-dimethyl-5-[2-(morpholin-4-yl)-8-(1H-pyrazol-5-yl)-1,7-naphthyridin-4-yl]pyridin-2-amine]	96.8
CC(C)n1cc(-c2cc(N3CCOC[C@H]3C)nc3c(-c4ccn[nH]4)nccc23)cn1 [Example 255, 2-[(3R)-3-methylmorpholin-4-yl]-4-[1-(propan-2-yl)-1H-pyrazol-4-yl]-8-(1H-pyrazol-5-yl)-1,7-naphthyridine]	42.7
C[C@@H]1COCCN1c1cc(-c2cnn(-c3ccccc3)c2)c2ccnc(-c3ccn[nH]3)c2n1 [Example 265, 2-[(3R)-3-methylmorpholin-4-yl]-4-(1-phenyl-1H-pyrazol-4-yl)-8-(1H-pyrazol-5-yl)-1,7-naphthyridine]	74.6
Cc1c(-c2cc(N3CCOCC3)nc3c(-c4ccn[nH]4)nccc23)cnn1C [Example 272, 4-(1,5-dimethyl-1H-pyrazol-4-yl)-2-(morpholin-4-yl)-8-(1H-pyrazol-5-yl)-1,7-naphthyridine]	21.3
CN(C)c1cccc(-c2cc(N3CCOCC3)nc3c(-c4ccn[nH]4)nccc23)c1 [Example 320, N,N-dimethyl-3-[2-(morpholin-4-yl)-8-(1H-pyrazol-5-yl)-1,7-naphthyridin-4-yl]aniline]	46.8
c1cc(-c2cc(N3CCOCC3)nc3c(-c4ccn[nH]4)nccc23)cc(-n2cccn2)c1 [Example 336, 2-(morpholin-4-yl)-8-(1H-pyrazol-5-yl)-4-[3-(1H-pyrazol-1-yl)phenyl]-1,7-naphthyridine]	120
CC1CCCN(c2cc(N3CCOCC3)nc3c(-c4ccn[nH]4)nccc23)C1 (stereo not drawn) [Example 414, 4-(3-methylpiperidin-1-yl)-2-(morpholin-4-yl)-8-(1H-pyrazol-5-yl)-1,7-naphthyridine]	90.8
